Measurements as given in patent US20250179045A1, “LPAR1 ANTAGONISTS AND USES THEREOF” (Contineum Therapeutics, Inc., priority 2021, published 2025).
Read-outs that look alike come from different tables or passages of the source. Values belong to the compound of their own block, whether it stands above or below them.

Chains of the proteins cited; added tags and fusions are not shown.
UniProt Q92633, whole entry: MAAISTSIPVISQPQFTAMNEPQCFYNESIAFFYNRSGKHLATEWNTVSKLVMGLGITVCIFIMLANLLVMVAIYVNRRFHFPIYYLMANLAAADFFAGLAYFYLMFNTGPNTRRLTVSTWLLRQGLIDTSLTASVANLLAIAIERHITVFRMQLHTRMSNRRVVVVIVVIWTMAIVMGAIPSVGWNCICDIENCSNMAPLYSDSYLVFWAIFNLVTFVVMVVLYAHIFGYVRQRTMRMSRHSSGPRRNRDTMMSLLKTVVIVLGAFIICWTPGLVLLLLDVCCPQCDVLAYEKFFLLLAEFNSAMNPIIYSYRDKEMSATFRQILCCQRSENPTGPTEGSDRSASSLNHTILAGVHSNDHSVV

Target: human LPA1 (Homo sapiens, UniProt Q92633)
Assay: In vitro functional assay of lysophosphatidic acid receptor 1 activity (calcium flux)
Settings: read-out: LPA1 IC50, B103 cells stably expressing human LPA1, Fluo-4 NW calcium flux after lysophosphatidic acid (18:1) at EC80, compounds 100 pM to 10 μM

SMILES: CC(C)c1ccccc1C1(C(=O)Nc2ccc(Cl)cn2)CC(CC(=O)O)C1 (single isomer, unassigned)
IC50: 10 to 100 nM

SMILES: COc1ccc(NC(=O)C2(c3ccccc3C(C)C)CC(CC(=O)O)C2)c(OC(F)F)n1 (single isomer, unassigned)
IC50: < 10 nM

SMILES: COc1ccc(NC(=O)C2(c3ccccc3C(C)C)CNC(=O)C2)c(OC(F)F)n1 (single isomer, unassigned)
IC50 (listed as 89-isomer A): 10 to 100 nM
IC50 (listed as 89-isomer B): 100 to 1000 nM

SMILES: Cc1ccc(NC(=O)C2(c3ccccc3C(C)C)CC(CC(=O)O)C2)c(OC(F)F)n1 (single isomer, unassigned)
IC50: < 10 nM

Further lines, results first:

IC50 (listed as 76-isomer A): 100 to 1000 nM
IC50 (listed as 76-isomer B): 10 to 100 nM
SMILES: CC(C)c1ccccc1C1(C(=O)Nc2ncc(Cl)cc2OC(F)F)CC(=O)N(C)C1 (single isomer, unassigned)

IC50: 10 to 100 nM
SMILES: COc1ccc(NC(=O)C2(c3ccccc3C(C)C)CC(=O)N(C)C2)c(OC(F)F)n1 (single isomer, unassigned)

IC50 (listed as 90-isomer A): 10 to 100 nM
IC50 (listed as 90-isomer B): 100 to 1000 nM
SMILES: Cc1ccc(NC(=O)C2(c3ccccc3C(C)C)CNC(=O)C2)c(OC(F)F)n1 (single isomer, unassigned)
